Assay results as given in article PMC10999558, “Analyzing resistome in soil and Human gut: a study on the characterization and risk evaluation of antimicrobial peptide resistance” (Frontiers in Microbiology, 2024).

What was measured:
Type in all cases: cell-based, Escherichia coli
Settings in all cases: MHB, 37°C, 24 h, triplicate
[1] = tested on: E. coli DH5α; assay: MIC, broth microdilution, E. coli DH5α carrying pUC118 or resistance-conferring plasmids
Procedure: (§1) Escherichia coli DH5α, E. coli BL21(DE3), and E. coli JM109 were utilized in this study.
(§2) The MICs were determined using the broth microdilution method in 96-well microtiter plates ([Wiegand et al., 2008]). In brief, a 1:100 dilution of the mid-exponential phase bacterial culture (OD600 = 0.5), consisting of 5 μL (1 × 10^5 CFU/mL), was introduced into polypropylene 96-well plates. These plates contained a two-fold dilution series of AMP in a total volume of 100 μL MHB per well. The incubation of the plates occurred at 37°C in a humidity chamber. The MIC was identified as the lowest concentration that hindered visible bacterial growth after 24 h of incubation. Each experiment was conducted in triplicate.
(§3) Following validation, the colonies displaying resistance underwent additional testing via MIC assessments for the remaining four AMPs that were not employed during the selection process. This experimental procedure was carried out in triplicate.

[2] = tested on: E. coli JM109; assay: MIC, broth microdilution, retransformed E. coli JM109
Procedure: as §1, §2
(§4) Before washing down the colonies, we randomly selected two clones from each plate containing distinct AMP. Colony PCRs were conducted using M13 primer pairs to validate the presence of inserts and determine their sizes. The selected colonies were then subjected to sequencing. The specific details are provided in Supplementary Table S2. Following that, plasmids were isolated using the Plasmid Midiprep Kit (Zomanbio, ZP103) following the manufacturer’s guidelines. After the plasmids were successfully reintroduced into E. coli JM109 and E. coli BL 21(DE3), the MICs of the transformed strains against the AMP used for selection were tested. This testing process was carried out in triplicate.
as §3

[3] = tested on: E. coli BL21(DE3); assay: MIC, broth microdilution, retransformed E. coli BL21(DE3)
Procedure: as §1, §2, §4, §3

In the case of Cathelicidin-DM [SA37], the MIC ([1]; E. coli DH5α containing pUC118 plasmids) is reported as 16 µg/mL, the MIC ([1]; colony pUC118-DH5α (control, no insert)) is reported as 16 µg/mL and the MIC ([1]; colony pUC118-FCST1-DH5α (feces insert 1 selected against colistin)) is reported as 16 µg/mL. The MIC ([1]; colony pUC118-FCST2-DH5α (feces insert 2 selected against colistin)) was 16 µg/mL, the MIC ([1]; colony pUC118-FGQ1-DH5α (feces insert 1 selected against melittin)) was 32 µg/mL and the MIC ([1]; colony pUC118-FGQ2-DH5α (feces insert 2 selected against melittin)) was 16 µg/mL. The MIC ([1]; colony pUC118-FIB1-DH5α (feces insert 1 selected against iseganan)) was 16 µg/mL, the MIC ([1]; colony pUC118-FIB2-DH5α (feces insert 2 selected against iseganan)) was 32 µg/mL and the MIC ([1]; colony pUC118-FPB1-DH5α (feces insert 1 selected against polymyxin B)) was 16 µg/mL. It also gave an MIC ([1]; colony pUC118-FPB2-DH5α (feces insert 2 selected against polymyxin B)) of 16 µg/mL, an MIC ([1]; colony pUC118-FSA1-DH5α (feces insert 1 selected against cathelicidin-DM)) of 32 µg/mL and an MIC ([1]; colony pUC118-FSA2-DH5α (feces insert 2 selected against cathelicidin-DM)) of 32 µg/mL. The MIC ([1]; colony pUC118-SCST1-DH5α (soil insert 1 selected against colistin)) was 16 µg/mL, the MIC ([1]; colony pUC118-SCST2-DH5α (soil insert 2 selected against colistin)) was 16 µg/mL and the MIC ([1]; colony pUC118-SGQ1-DH5α (soil insert 1 selected against melittin)) was 32 µg/mL. The MIC ([1]; colony pUC118-SGQ2-DH5α (soil insert 2 selected against melittin)) was 32 µg/mL, the MIC ([1]; colony pUC118-SIB1-DH5α (soil insert 1 selected against iseganan)) was 16 µg/mL and the MIC ([1]; colony pUC118-SIB2-DH5α (soil insert 2 selected against iseganan)) was 16 µg/mL. For the same substance, the MIC ([1]; colony pUC118-SPB1-DH5α (soil insert 1 selected against polymyxin B)) was 16 µg/mL, the MIC ([1]; colony pUC118-SPB2-DH5α (soil insert 2 selected against polymyxin B)) was 16 µg/mL and the MIC ([1]; colony pUC118-SSA1-DH5α (soil insert 1 selected against cathelicidin-DM)) was 32 µg/mL. The MIC ([1]; colony pUC118-SSA2-DH5α (soil insert 2 selected against cathelicidin-DM)) was 32 µg/mL, the MIC ([2]; colony pUC118-FCST1-JM109 (feces insert 1 selected against colistin)) was 8 µg/mL and the MIC ([2]; colony pUC118-FCST2-JM109 (feces insert 2 selected against colistin)) was 8 µg/mL. For the same substance, the MIC ([2]; colony pUC118-FGQ1-JM109 (feces insert 1 selected against melittin)) was 16 µg/mL, the MIC ([2]; colony pUC118-FGQ2-JM109 (feces insert 2 selected against melittin)) was 8 µg/mL and the MIC ([2]; colony pUC118-FIB1-JM109 (feces insert 1 selected against iseganan)) was 8 µg/mL. The MIC ([2]; colony pUC118-FIB2-JM109 (feces insert 2 selected against iseganan)) was 16 µg/mL, the MIC ([2]; colony pUC118-FPB1-JM109 (feces insert 1 selected against polymyxin B)) was 8 µg/mL and the MIC ([2]; colony pUC118-FPB2-JM109 (feces insert 2 selected against polymyxin B)) was 8 µg/mL. For the same substance, the MIC ([2]; colony pUC118-FSA1-JM109 (feces insert 1 selected against cathelicidin-DM)) was 16 µg/mL, the MIC ([2]; colony pUC118-FSA2-JM109 (feces insert 2 selected against cathelicidin-DM)) was 16 µg/mL and the MIC ([2]; colony pUC118-JM109 (control, no insert)) was 8 µg/mL. It also gave an MIC ([2]; colony pUC118-SCST1-JM109 (soil insert 1 selected against colistin)) of 8 µg/mL, an MIC ([2]; colony pUC118-SCST2-JM109 (soil insert 2 selected against colistin)) of 8 µg/mL and an MIC ([2]; colony pUC118-SGQ1-JM109 (soil insert 1 selected against melittin)) of 16 µg/mL. For the same substance, the MIC ([2]; colony pUC118-SGQ2-JM109 (soil insert 2 selected against melittin)) was 16 µg/mL, the MIC ([2]; colony pUC118-SIB1-JM109 (soil insert 1 selected against iseganan)) was 8 µg/mL and the MIC ([2]; colony pUC118-SIB2-JM109 (soil insert 2 selected against iseganan)) was 8 µg/mL. It also gave an MIC ([2]; colony pUC118-SPB1-JM109 (soil insert 1 selected against polymyxin B)) of 8 µg/mL, an MIC ([2]; colony pUC118-SPB2-JM109 (soil insert 2 selected against polymyxin B)) of 8 µg/mL and an MIC ([2]; colony pUC118-SSA1-JM109 (soil insert 1 selected against cathelicidin-DM)) of 16 µg/mL. It also gave an MIC ([2]; colony pUC118-SSA2-JM109 (soil insert 2 selected against cathelicidin-DM)) of 16 µg/mL, an MIC ([3]; colony pUC118-BL21(DE3) (control, no insert)) of 16 µg/mL and an MIC ([3]; colony pUC118-FCST1-BL21(DE3) (feces insert 1 selected against colistin)) of 16 µg/mL. The MIC ([3]; colony pUC118-FCST2-BL21(DE3) (feces insert 2 selected against colistin)) was 16 µg/mL, the MIC ([3]; colony pUC118-FGQ1-BL21(DE3) (feces insert 1 selected against melittin)) was 32 µg/mL and the MIC ([3]; colony pUC118-FGQ2- BL21(DE3) (feces insert 2 selected against melittin)) was 16 µg/mL. It also gave an MIC ([3]; colony pUC118-FIB1-BL21(DE3) (feces insert 1 selected against iseganan)) of 16 µg/mL, an MIC ([3]; colony pUC118-FIB2-BL21(DE3) (feces insert 2 selected against iseganan)) of 32 µg/mL and an MIC ([3]; colony pUC118-FPB1-BL21(DE3) (feces insert 1 selected against polymyxin B)) of 16 µg/mL. For the same substance, the MIC ([3]; colony pUC118-FPB2-BL21(DE3) (feces insert 2 selected against polymyxin B)) was 16 µg/mL, the MIC ([3]; colony pUC118-FSA1-BL21(DE3) (feces insert 1 selected against cathelicidin-DM)) was 32 µg/mL and the MIC ([3]; colony pUC118-FSA2-BL21(DE3) (feces insert 2 selected against cathelicidin-DM)) was 32 µg/mL. It also gave an MIC ([3]; colony pUC118-SCST1-BL21(DE3) (soil insert 1 selected against colistin)) of 16 µg/mL, an MIC ([3]; colony pUC118-SCST2-BL21(DE3) (soil insert 2 selected against colistin)) of 16 µg/mL and an MIC ([3]; colony pUC118-SGQ1-BL21(DE3) (soil insert 1 selected against melittin)) of 16 µg/mL. It also gave an MIC ([3]; colony pUC118-SGQ2-BL21(DE3) (soil insert 2 selected against melittin)) of 32 µg/mL, an MIC ([3]; colony pUC118-SIB1-BL21(DE3) (soil insert 1 selected against iseganan)) of 16 µg/mL and an MIC ([3]; colony pUC118-SIB2-BL21(DE3) (soil insert 2 selected against iseganan)) of 16 µg/mL. For the same substance, the MIC ([3]; colony pUC118-SPB1-BL21(DE3) (soil insert 1 selected against polymyxin B)) was 16 µg/mL, the MIC ([3]; colony pUC118-SPB2-BL21(DE3) (soil insert 2 selected against polymyxin B)) was 16 µg/mL and the MIC ([3]; colony pUC118-SSA1-BL21(DE3) (soil insert 1 selected against cathelicidin-DM)) was 32 µg/mL. It also gave an MIC ([3]; colony pUC118-SSA2-BL21(DE3) (soil insert 2 selected against cathelicidin-DM)) of 32 µg/mL.
